Experiment: Resistant index, ratio of EC50 for antiplasmodial activity against chloroquine-resistant Plasmodium falciparum Dd2 to EC50 for antiplasmodial activity against chloroquine-sensitive Plasmodium falciparum 3D7
Format: functional

In the case of `Clc1ccc2nc(/C=C/c3ccncc3)cc(NCCCCn3cc(CN4CCCC4)nn3)c2c1`, the Ratio EC50 is reported as 1.32.
